Measured values taken from publication PMC12223415 (RSC Chemical Biology, 2025).

Target: T1, β-glucocerebrosidase (GCase) (Homo sapiens, UniProt P04062)
T1 sequence (P04062 40-536): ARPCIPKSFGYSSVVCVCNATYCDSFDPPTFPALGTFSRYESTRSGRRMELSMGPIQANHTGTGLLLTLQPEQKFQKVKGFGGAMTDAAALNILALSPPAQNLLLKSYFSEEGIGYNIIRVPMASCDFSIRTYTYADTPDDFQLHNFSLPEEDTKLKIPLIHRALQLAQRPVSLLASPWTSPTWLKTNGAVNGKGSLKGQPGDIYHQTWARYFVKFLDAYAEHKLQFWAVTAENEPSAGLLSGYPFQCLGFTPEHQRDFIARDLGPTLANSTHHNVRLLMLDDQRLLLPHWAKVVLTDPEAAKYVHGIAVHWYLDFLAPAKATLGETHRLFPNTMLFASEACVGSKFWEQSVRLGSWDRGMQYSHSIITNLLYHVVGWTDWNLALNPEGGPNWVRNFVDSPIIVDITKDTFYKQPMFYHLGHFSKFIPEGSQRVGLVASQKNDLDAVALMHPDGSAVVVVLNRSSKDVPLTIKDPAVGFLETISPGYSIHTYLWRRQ
Type: cell-based

IC50: 11 ± 2 nM
Structure (SMILES): O[C@H]1[C@H](O)CNC[C@@H]1C(F)F [AT3375]
